Experimental data published in publication PMC5826244 (OncoTargets and therapy, 2018).

Target: T1, LH-RH-I receptors, membranes of human UM models (Homo sapiens, UniProt P30968)
T1 sequence (P30968 1-328): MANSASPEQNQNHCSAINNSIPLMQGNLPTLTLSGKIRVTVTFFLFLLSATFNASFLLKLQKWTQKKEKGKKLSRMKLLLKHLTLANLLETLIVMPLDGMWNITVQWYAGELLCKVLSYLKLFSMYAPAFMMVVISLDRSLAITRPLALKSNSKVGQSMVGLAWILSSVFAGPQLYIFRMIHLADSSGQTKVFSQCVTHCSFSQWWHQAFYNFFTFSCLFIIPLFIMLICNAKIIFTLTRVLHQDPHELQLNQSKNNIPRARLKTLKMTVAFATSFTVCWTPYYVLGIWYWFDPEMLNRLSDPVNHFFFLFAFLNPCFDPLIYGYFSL
Assay: Radioligand binding / ligand competition, human UM samples
Conditions: increasing concentrations 10^−12–10^−6 M; data not shown

displacement of radiolabeled [D-Trp6]LH-RH binding: completely displaced
Substance: cetrorelix
